# Antibody variant affinities, Ab-95 light chain, assay 2

Data: MIT Lincoln Laboratory AlphaSeq set, Engelhart et al. 2022, doi:10.1038/s41597-022-01779-4, as distributed in FLAb.

Binding partner: SARS-CoV-2 spike HR2 peptide, sequence PDVDLGDISGINAS.

The variants keep the heavy chain, the linker and the frameworks of Ab-95 (scFv order VH, a 15-residue (Gly4Ser)3 linker, VL).
VH: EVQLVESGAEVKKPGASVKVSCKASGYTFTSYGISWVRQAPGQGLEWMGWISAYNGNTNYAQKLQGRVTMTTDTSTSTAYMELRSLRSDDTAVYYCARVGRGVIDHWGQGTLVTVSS
VL: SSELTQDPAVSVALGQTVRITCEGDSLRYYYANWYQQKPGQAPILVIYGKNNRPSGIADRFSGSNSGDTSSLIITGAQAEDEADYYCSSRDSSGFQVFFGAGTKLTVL

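Library AAYL52 holds single substitutions and randomly drawn double and triple substitutions in the CDRs. Affinity was read by AlphaSeq, a pooled yeast mating assay with surface-displayed partners. Mating (16 h, 30 °C) was followed by selection of diploids and sequencing of their barcodes. Each replicate has its own calibration line, from reference interactions of the BCL2 family. The assay was run in three technical replicates.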

Changes read parent residue, position, new residue, counted from the first residue of the VL shown.
Numbers give log10(Kd / nM), so 0 is 1 nM and 3 is 1 µM. Smaller is tighter.
The mean shown is taken over the replicates in which the pair was detected.
An entry "nd" has no value in the source: the pair was not observed among the diploids in any replicate. This suggests poor binding but is not conclusive.
For reference, the parent read 2.31 as the reference entry and 2.25 as a member of this library.

changes | mean log10 Kd (nM) | replicates with signal | control signals
A32D N33K V97I | 4.97 | 1/3 | 0/9
G24T R28I R90S | 3.78 | 2/3 | 5/9
S26E N33Y S89A | 3.76 | 1/3 | 5/9
G24V N52H S93C | 4.81 | 2/3 | 6/9
R53C P54K D91A | 4.38 | 1/3 | 4/9
Y29I K50D S89Y | 3.70 | 1/3 | 3/9
G24T S93M G94T | nd | 0/3 | 4/9
G49Y S88W R90Q | 4.27 | 3/3 | 4/9
S26W L27M S88Q | 3.65 | 3/3 | 2/9
G24F L27F S89C | 3.02 | 2/3 | 0/9
N33G D91L | 2.91 | 1/3 | 1/9
N51Q N52V S88L | 3.02 | 1/3 | 1/9
A32Y S92G G94T | nd | 0/3 | 1/9
A32H G49R | nd | 0/3 | 2/9
Y31D G49W K50F | 3.85 | 2/3 | 3/9
K50E P54V G94F | 1.97 | 3/3 | 3/9
Y29E P54M | 2.24 | 3/3 | 2/9
Y30E S89C Q96P | 1.40 | 3/3 | 5/9
D25E R90H D91H | 3.29 | 3/3 | 3/9
D25W L27R Y31T | 3.90 | 2/3 | 4/9
G94Q F95I V97I | nd | 0/3 | 0/9
G24W Y31D R90S | 3.26 | 3/3 | 1/9
E23H N33A R53L | nd | 0/3 | 0/9
L27K S88D G94N | 4.19 | 1/3 | 1/9
R53S S55Y F95R | 3.20 | 2/3 | 2/9
E23F D25L S93A | 3.19 | 2/3 | 1/9
D25F Y31T F95W | 3.14 | 3/3 | 5/9
L27K R53K Q96P | 5.15 | 1/3 | 1/9
S26Y N51F R53D | 3.99 | 1/3 | 3/9
G49N R53W V97I | 4.24 | 1/3 | 2/9
D91R G94F Q96V | nd | 0/3 | 1/9
G94C F95H V97D | 4.07 | 3/3 | 4/9
E23W Y30I S92Y | 3.12 | 3/3 | 3/9
D25S S26M N33S | 3.10 | 3/3 | 3/9
Y31I R90Q S93N | 3.89 | 2/3 | 1/9
N33Q R90W V97H | 3.89 | 2/3 | 2/9
G24M N51Y D91H | 5.52 | 1/3 | 3/9
Y31E N33R N52H | 3.13 | 3/3 | 3/9
Y29V P54E S88M | 3.91 | 3/3 | 2/9
E23V L27F Q96Y | nd | 0/3 | 1/9
R28D N52H R53A | 3.61 | 3/3 | 1/9
S26T S88D G94K | 4.07 | 2/3 | 3/9
A32L N51W F98R | 4.05 | 1/3 | 1/9
Y29V S89N F98S | nd | 0/3 | 1/9
R28Q Y30S S89I | 0.92 | 3/3 | 5/9
Y30W V97M | 3.30 | 2/3 | 5/9
Y31G S92L S93M | 2.79 | 3/3 | 1/9
L27G R53V S88R | nd | 0/3 | 1/9
E23N Y31Q Q96W | 1.48 | 3/3 | 4/9
Y31T A32E N51E | 4.16 | 1/3 | 0/9
Y29E V97W | 2.96 | 3/3 | 2/9
G24S Y29W N33A | 4.43 | 3/3 | 4/9
N51C S88G Q96H | 3.38 | 2/3 | 4/9
R28H N52C F98G | 4.01 | 2/3 | 3/9
S89I R90I | 3.51 | 1/3 | 1/9
R28G N33G S89H | 4.46 | 1/3 | 1/9
N52P Q96S | 3.18 | 3/3 | 5/9
A32P N33Y N51Q | 4.60 | 2/3 | 6/9
E23A R90F D91S | nd | 0/3 | 0/9
Y30V Y31P R53L | 2.28 | 3/3 | 3/9
P54I S89F Q96P | 2.67 | 3/3 | 3/9

Repeated from above, the 5 best binders with a signal in all replicates:

| changes | mean log10 Kd (nM) | replicates with signal | control signals |
|---|---|---|---|
| R28Q Y30S S89I | 0.92 | 3/3 | 5/9 |
| Y30E S89C Q96P | 1.40 | 3/3 | 5/9 |
| E23N Y31Q Q96W | 1.48 | 3/3 | 4/9 |
| K50E P54V G94F | 1.97 | 3/3 | 3/9 |
| Y29E P54M | 2.24 | 3/3 | 2/9 |

Background: pairings of library AAYL52 with three empty control strains gave a value in 28% of cases (median 3.91, 5th percentile 2.90). Values in that range, when seen in few replicates, are hard to tell from nonspecific mating. For each scFv, signals with the empty controls are counted beside the result.